The source of these data is patent publication US11974988B2, “Neuroprotective compositions and methods of using the same” (The Board of Supervisors of Louisiana State Univer …, priority 2018, dated 2024).

“And” between values parts separate entries of the source, which are not always exact repeats. Equal values may be shown once. “Also recorded” adds a separate entry of the source. Read-outs that look alike come from different tables or passages of the source.

For test [1], the system named is activity-regulated Gln/MeAIB transport (SNAT activity) in hippocampal neurons. As to the kind of experiment: Activity-regulated (spontaneous, 4-AP- or K+-stimulated) [14C]-MeAIB transport in primary hippocampal neurons. It counts as cell-based, rat. Also noted: block of transport activity: concentration or dose not given beside the values. Conditions: for IC50: read-out: IC50 to inhibit activity-regulated Gln/MeAIB transport.

Test [2] shares this test system. The conditions noted are these: read-out: IC50 to inhibit activity regulated Gln/MeAIB transport; cited from earlier work.
Test [3] relates to glutamate transporters GLAST, GLT1 and EAAC1. Conditions: read-out: EC50, enhancement of glutamate transporter activity; cited from earlier work.

Turning to `Nc1nc2ccc(OC(F)(F)F)cc2s1` [riluzole], in test [1], the “block of 4-AP stimulated 14C-MeAIB transport, in words” value is given as “blocked”; the “block of transport activity” value is on record as ~90%; the “inhibition of spontaneous activity-regulated 14C-MeAIB transport, in words” value is listed as “blocked spontaneous transport activity; also recorded: inhibited spontaneous transport activity”; the “potency to block 4-AP stimulated transport less than potency to block spontaneous transport” value is on record as ~3 fold. In test [1], the IC50 is ~1000 nM and 1000 nM. Moreover, in test [1] (Rattus norvegicus, Hippocampal neuron), the IC50 was determined as 1300 nM. Besides, the inhibition at 10 µM in test [1] (Rattus norvegicus, Hippocampal neuron, read-out: block / inhibition of transport activity) is ~90%. Moreover, the IC50 in test [2] was 1000 nM. For the same compound, the EC50 in test [3] was > 100 µM.
